From patent US11299518B2, “Fusion respiratory syncytial virus inhibitors and use thereof” (priority 2016, dated 2022)

Legend:
[1] = system: recombinant green fluorescent protein (GFP)-expressing RSV virus (strain A2); format: cell-based; details: A549 cells
Description: The inhibitory activity of the peptides of the invention was assessed in a cellular viral fusion assay as compared to comparative peptides as follows. A549 cells were infected with a recombinant green fluorescent protein (GFP)-expressing RSV virus (strain A2) obtained as described below and in Hallak et al., 2000, Virology, 271:264-275, and the inhibitory activity of the peptides was quantified by flow cytometry.
Following rapid thawing of the frozen eGFP encoding RSV virus at […], the virus was vortexed for 2 min, and pipetted up and down to break aggregates. Serial 4-fold dilutions of inhibitors were prepared in glass tubes and mixed with a volume of virus required to achieve approximately 50% of infection in 200 μl of media containing 2% of FCS. The resulting mixture was added to 24-well plates containing A549 cells. Cells were incubated for 2 hours at 37° C., the media was replaced, and cells were incubated for an additional 24 hours. Cells were treated with 300 μl of trypsin for 10 min at 37° C., and the detached cells were diluted in 1 ml of culture medium. Following centrifugation at 1′700 rpm, the pellet was resuspended in 300 μl of PBS+1% SBF (V/V) and GFP positive cells were counted by FACS analysis.

[2] = CD spectroscopy, percentage of helicity; format: physicochemical; details: CD at 222 nm, 10 mM phosphate buffer pH 7.5, 50 μM peptide, 25° C.
Description: The secondary structure of the peptides was then characterized by circular dichroism (DC) as described below.
The circular dichroism spectra were acquired on a Jasco J-810 and on a Chirascan spectropolarimeter. The samples were prepared in 10 mM phosphate buffer, pH 7.5, at a peptide concentration of 50 μM. Data were recorded at 25° C. by stepscan from 180 nm to 260 nm in a 0.1 cm pathlength quartz cell using 0.2 nm wavelength increments, 1 nm bandwidth and a response time of 0.5 sec. Each spectrum was an average of three measurements and was subtracted from buffer baseline. The data were converted to per residue molar ellipticity units [θ] (deg·cm2·dmol−1·residue−1) and smoothed using the Igor software. The percentage of helicity was calculated as it follows:
[formula] whereby CD222=molar ellipticity at 222 nm in [mdeg], N=number of amino acids in the peptide and C=peptide molar concentration [mol/l].

| Structure (SMILES) | EC50 ([1]; FACS, read-out: EC50, block of viral infection of cells) [µM] | % helicity [2] [%] | inhibitory activity in cellular viral fusion assay [1] |
| --- | --- | --- | --- |
| CC[C@H](C)[C@@H]1NC(=O)[C@H](Cc2ccccc2)NC(=O)[C@@](C)(NC(=O)[C@H](CC(C)C)NC(=O)[C@H](CO)NC(=O)[C@H](CCC(N)=O)NC(=O)[C@H](CCC(=O)O)NC(C)=O)CCCC=CCCC[C@@](C)(C(=O)N[C@@H](CO)C(=O)N[C@@H](CC(=O)O)C(=O)N[C@@]2(C)CCCC=CCCC[C@@](C)(C(=O)N[C@H](C(N)=O)C(C)C)NC(=O)[C@H](Cc3c[nH]cn3)NC(=O)[C@H](CC(C)C)NC(=O)[C@H](CC(C)C)NC2=O)NC(=O)[C@H](CCCNC(=N)N)NC1=O [Peptide 3ac, EQSL X504FIR X508 SD X511 LLH X515 V] | 15.3 ± 5.9 | 47.2 |  |
| CC[C@H](C)[C@@H]1NC(=O)[C@H](CCCCN)NC(=O)[C@](C)(NC(C)=O)CCCCCCC=CCCC[C@@](C)(C(=O)N[C@@H](Cc2ccccc2)C(=O)N[C@H](C(=O)N[C@@H](CCCNC(=N)N)C(=O)N[C@]2(C)CCCCCCC=CCCC[C@@](C)(C(=O)N[C@H](C(N)=O)C(C)C)NC(=O)[C@H](Cc3c[nH]cn3)NC(=O)[C@H](CC(C)C)NC(=O)[C@H](CC(C)C)NC(=O)[C@H](CCC(=O)O)NC(=O)[C@H](CC(=O)O)NC(=O)[C@H](CO)NC2=O)[C@@H](C)CC)NC(=O)[C@H](CC(C)C)NC(=O)[C@H](CO)NC(=O)[C@H](CCC(N)=O)NC(=O)[C@H](CC(N)=O)NC1=O [Peptide 4ef, 8497 KINQSL X504 FIR 8508 SDELLH X515 V, reference compound] |  | 50.7 | inactive |
